The nature of data set [1]: Blood-brain barrier permeability: brain concentration after a single injection. The settings on record: male, rat, in vivo, ip, 10 mg/kg. As to the method:
The blood-brain barrier permeability of carbonyl-containing cyclic compounds is determined in in vivo studies. Healthy male rats used in the study were divided into compound group and control group. […] The brains were dissected, heated immediately at boiling water for 2 min, homogenized with methanol, and centrifuged. The upper layer was collected and dried under vacuum to remove solvents, and then resuspended in methanol. The above samples are filtered through a 0.45 micron nylon membrane, and then 20 microL of sample were load into a high-performance liquid chromatographic (HPLC) system (Model LC-16P, Shimadzu, Japan) to perform quantitative analysis. […] For ELB00824, the mobile phases consisted of 75% methanol and 0.4% acetic acid in water (solvent A), and 50% acetonitrile, 37.5% methanol, 12.5% tetrahydrofuran, 0.4% acetic acid in acetonitrile (solvent B).

For data set [2] the following is noted: high oral doses (10 mg/kg body weight), animal study, reference 1; cited from earlier work.

Where “and” joins values, the source holds several entries; their conditions need not be identical. Identical values can stand only once.

As usually defined, the Cmax is the highest concentration seen after dosing.

For `CCc1ccc(CCOc2ccc(CC3SC(=O)NC3=O)cc2)nc1` (stereo not shown) [pioglitazone], in data set [1], the Cmax was 2.2 µM and 740 ng/mL.
`CN(CCOc1ccc(CC2SC(=O)NC2=O)cc1)c1ccccn1` (stereo not shown) [rosiglitazone]: the “concentration in the brain” value in data set [2] is reported as “about 0.7 micromole/L”. For the same compound, in data set [1], the Cmax was 1.4 µM and 504 ng/mL; the “time to maximum brain concentration (Tmax)” value worked out at 1 h.

The values are drawn from patent US12545653B2, “Compound as PPAR agonist and application thereof” (USA Elixiria Biotech Inc., priority 2019, dated 2026).
